Among the data in US7267977B2, “Peripheral-type benzodiazepine receptor: a tool for detection, diagnosis, prognosis, and treatment of cancer” (Georgetown University, priority 1998, dated 2007) are Kd values, retold here.

By UniProt entry, the sequences of proteins in these tests, tags left out. Residues count along the entry.
UniProt P30536, 2-169: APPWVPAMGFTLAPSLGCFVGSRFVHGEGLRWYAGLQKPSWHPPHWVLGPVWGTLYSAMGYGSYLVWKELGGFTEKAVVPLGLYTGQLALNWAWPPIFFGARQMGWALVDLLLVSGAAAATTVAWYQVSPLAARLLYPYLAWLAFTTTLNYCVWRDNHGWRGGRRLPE

SMILES strings stand for the structures.

In assay [1] the target is T1, peripheral-type benzodiazepine receptor (PBR) (Homo sapiens, UniProt P30536).
T1 construct: Cells were scraped from 150 mm culture dishes into 5 ml phosphate buffered saline (PBS); endogenous in cells; host or cells: MDA-231, MCF-7 and MCF-7ADR (ADR) human breast cancer cells, whole cells or isolated nuclei
As to the kind of experiment: [3H]PK11195 radioligand binding to whole cells (Scatchard analysis, competition). The settings on record: 50 μg protein, [3H]PK11195, Scatchard plot. The method, then: (§1) Radioligand Binding Assays—Cells were scraped from 150 mm culture dishes into 5 ml phosphate buffered saline (PBS), dispersed by trituration, and centrifuged at 500×g for 15 min. Cell pellets were resuspended in PBS and assayed for protein concentration. […] Scatchard plots were analyzed by the LIGAND program [Munson, (1980) Anal. Biochem. 107:220]. […] IC50 estimation was performed using the LIGAND program (Munson, 1980, supra).

Assay [2] concerns the target T1, peripheral-type benzodiazepine receptor (PBR). As to the kind of experiment: [3H]PK11195 binding to isolated nuclei (Scatchard analysis). The method, then: as §1
Nuclear Uptake of ^3H-Cholesterol—Nuclei were isolated from MDA-231, MCF-7, and as described by Elango et al (1997). […] Samples were then centrifuged at 500×g for 30 min and pellets were washed in […] ice-cold PBS. After a second centrifugation at 500×g for 30 min, 200 ul 1.0 N NaOH was then added to the pellets and incubated overnight at 37° C. After incubation, 200 ul 1.0 N HCl was added and samples were vigorously vortexed. 3 ml scintillation cocktail (Eco-Lite) was then added prior to reading radioactivity on a Wallac 1409 Liquid Scintillation Counter.

For orientation: Kd means a measure of binding affinity in units of concentration. A lower Kd goes with a tighter complex.

On to `CCC(C)N(C)C(=O)c1cc2ccccc2c(-c2ccccc2Cl)n1` (stereo not shown) [PK11195], for which the Kd came out at 1.9 ± 0.47 nM in assay [1] (ADR (MCF-7ADR) cells), 7.8 ± 1.8 nM in assay [1] (MDA-231 cells), 7.6 ± 4.6 nM in assay [2] (nuclei isolated from MCF-7 cells) and 10.3 ± 8.4 nM in assay [2] (nuclei isolated from MDA-231 cells).
